Common to all, as to assay: cells
Settings in all cases: Homo sapiens, MCF7, 48 h, read-out: Activity

Test [1] concerns MCF7.
The subject of test [2] is MCF7. This is another data set of the same source.
The test system of test [3] is MCF7. This is another data set of the same source.

On to `Cc1cc2c(cc1Cl)SC(/N=C(/N)Nc1cccc3ccccc13)=NS2(=O)=O`, for which the viability at 1 µM in test [1] was 27.2%. Moreover, the viability at 0.5 µM in test [2] was determined as 67.4%. Further, the viability at 2 µM in test [3] came out at 17.2%.

For the origin of these results see ChEMBL document CHEMBL5344474, “Molecular editing of NSC-666719 enabling discovery of benzodithiazinedioxide-guanidines as anticancer agents” (RSC Med Chem, 2024).
